As a reminder, the EC50 is the concentration that produces a half-maximal response. Broadly, the IC50 is the concentration that inhibits the measured activity by half.

By UniProt entry, the sequences of proteins in these tests, tags left out. Residues count along the entry.
UniProt Q96RI0, 18-385: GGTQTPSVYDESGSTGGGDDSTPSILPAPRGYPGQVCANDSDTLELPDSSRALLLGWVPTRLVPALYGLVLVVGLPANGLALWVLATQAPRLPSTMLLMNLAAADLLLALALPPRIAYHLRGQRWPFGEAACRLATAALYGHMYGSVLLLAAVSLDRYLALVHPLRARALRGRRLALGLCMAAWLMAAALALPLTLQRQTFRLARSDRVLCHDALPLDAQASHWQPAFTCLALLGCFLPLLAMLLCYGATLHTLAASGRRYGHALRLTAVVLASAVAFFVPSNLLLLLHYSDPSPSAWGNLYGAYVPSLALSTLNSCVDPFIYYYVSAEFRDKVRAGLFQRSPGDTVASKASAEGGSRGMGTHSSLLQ

These results are taken from US9688695B2, “Imidazothiadiazole and imidazopyrazine derivatives as protease activated receptor 4 (PAR4) inhibitors for treating platelet aggregation” (BRISTOL-MYERS SQUIBB COMPANY, priority 2012, dated 2017).

Assay [1] addresses T1, PAR4 (Homo sapiens (Human), UniProt Q96RI0). Briefly: FLIPR assay in PAR4-expressing HEK293 cells (PAR4 antagonist activity, calcium mobilization). In kind it is cell-based. The conditions noted are these: H-Ala-Phe(4-F)-Pro-Gly-Trp-Leu-Val-Lys-Asn-Gly-NH2-induced calcium mobilization. The source says:
The FLIPR assay is an exemplary in vitro assay for measuring the activity of the PAR4 antagonists of the present invention. In this assay, intracellular calcium mobilization is induced in PAR4 expressing cells by a PAR4 agonist and calcium mobilization is monitored. See, e.g., Example A.
HEK293 cells stably expressing PAR4 were generated by a standard method of transfection of human […] cDNA expression vector or by RAGE technology from Athersys Inc. (Cleveland, Ohio) and selected based on PAR4 protein expression of mRNA expression. […] These cells express endogenous PAR1 and can elicit calcium signal upon stimulation with PAR1 agonist peptide.
Counter screens for agonist activity and PAR1 antagonist activity were also performed. Briefly, HEK293 EBNA PAR4 clone 20664.1J cells were plated 24 hrs. prior to experiment in 384 well, Poly-D-Lysine coated, black, clear bottom plates (Greiner Bio-One, Monroe, N.C.). Cells were plated at 20,000 cells/well in […] growth medium and incubated at 37° C. with 5% CO2 overnight. At time of assay, media was replaced with 40 μl 1× Hank's Buffered Saline Solution (HBSS) (with 10 mM HEPES) and 20 μl test compound also diluted in 1×HBSS buffer was added at various concentrations and 0.67% DMSO final concentration on the FDSS for agonist measurement. […]
A general note: Calcium flux is commonly read through the fluorescence of an indicator in the cells.

For assay [2], the target named is T1, PAR4. Briefly: Gamma thrombin induced platelet aggregation assay (PRP assay). It is filed as cell-based. The conditions noted are these: human platelet rich plasma, 96-well microplate. The protocol:
Platelet aggregation can be monitored in a 96-well microplate aggregation assay format or using standard platelet aggregometer.
The platelet rich plasma was isolated by centrifugation at 170 g for 14 minutes.
The ability of the compounds of the current invention to inhibit platelet aggregation induced by gamma-thrombin was tested in a 96-well microplate aggregation assay format. Briefly, PRP or washed platelet suspension (100 μl) was pre-incubated for 5 minutes at room temperature with varying concentrations of compounds. Aggregation was initiated by ˜10-50 nM gamma thrombin (Haematologic Technologies, Essex Junction, Vt.), which was titrated daily to achieve 80% platelet aggregation. Refludan at 1 U/mL (Berlex, Montville, N.J.) was added to the gamma thrombin sample to prevent PAR1 activation induced by residual alpha-thrombin contamination. The plate was then placed into a 37° C. Molecular Devices (Sunnyvale, Calif.) SPECTRAMAX® Plus Plate Reader. […] The plate also included an untreated control sample which served as ODmax, while buffer containing no platelets was the ODmin. Platelet aggregation was determined by subtracting the ODmax from the ODmin for the 100% aggregation value. […] IC50 values are determined using Excel Fit software.

On to `COc1cc(OCc2csc(-c3ccc(C(=O)N(C)CC#N)cc3)n2)c2cc(-c3cn4nc(OC)sc4n3)oc2c1` [Example 288], for which the EC50 at PAR4 [1] came out at 0.36 nM. On PAR4 [2], this molecule came in with an IC50 of 1 nM.
